Sequences of proteins named here, by UniProt entry; tags and fusion partners are left off. Residues count along the entry.
UniProt P22303, 32-614 limits assumed: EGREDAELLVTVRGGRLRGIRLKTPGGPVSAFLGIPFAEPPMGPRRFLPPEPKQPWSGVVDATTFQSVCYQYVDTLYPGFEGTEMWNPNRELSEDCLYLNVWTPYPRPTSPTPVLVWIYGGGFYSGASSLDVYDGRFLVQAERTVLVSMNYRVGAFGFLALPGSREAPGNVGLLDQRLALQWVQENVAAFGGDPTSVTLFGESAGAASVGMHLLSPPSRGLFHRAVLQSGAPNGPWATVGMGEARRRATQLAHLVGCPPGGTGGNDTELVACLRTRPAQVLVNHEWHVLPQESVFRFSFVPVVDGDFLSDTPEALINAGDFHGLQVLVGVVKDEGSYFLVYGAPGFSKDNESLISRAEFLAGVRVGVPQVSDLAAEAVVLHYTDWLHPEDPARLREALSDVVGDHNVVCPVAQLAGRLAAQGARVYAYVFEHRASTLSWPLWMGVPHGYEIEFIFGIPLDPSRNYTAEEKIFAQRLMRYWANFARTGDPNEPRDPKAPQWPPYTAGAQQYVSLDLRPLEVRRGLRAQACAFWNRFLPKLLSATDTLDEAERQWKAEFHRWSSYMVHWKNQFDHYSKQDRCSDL

In BindingDB's records for 28684009:

Molecular target: Acetylcholinesterase (Homo sapiens, UniProt P22303)
Assay: Inhibition of human AChE using acetylthiocholine as substrate preincubated for 30 mins followed by substrate addition measured every 5 mins for 20 mins by Ellman's method

| Structure (SMILES) | IC50 [µM] |
| --- | --- |
| COc1cc(/C=N/O)c(O)c(CN2CCc3cc(OC)c(OC)cc3C2)c1 | 1380 |
| COc1cc2c(cc1OC)C(c1ccccc1)N(Cc1cc(Cl)cc(/C=N/O)c1O)CC2 (configuration not stated) | 1210 |
| COc1cc(/C=N/O)c(O)c(CN2CCC(CN3CCc4cc(OC)c(OC)cc4C3c3ccccc3)CC2)c1 (configuration not stated) | 543 |
| COc1cc2c(cc1OC)CN(Cc1cc(F)cc(/C=N/O)c1O)CC2 | 692 |
| COc1cc2c(cc1OC)C(c1ccccc1)N(CC1CCN(Cc3cc(F)cc(/C=N/O)c3O)CC1)CC2 (configuration not stated) | 684 |
| COc1cc2c(cc1OC)C(c1ccccc1)N(Cc1cc(Br)cc(/C=N/O)c1O)CC2 (configuration not stated) | 896 |
| COc1cc2c(cc1OC)CN(CC1CCN(Cc3ccc(O)c(/C=N/O)c3)CC1)CC2 | 393 |
| COc1cc2c(cc1OC)C(c1ccccc1)N(Cc1cc(C)cc(/C=N/O)c1O)CC2 (configuration not stated) | 1120 |
| COc1cc2c(cc1OC)CN(Cc1cc(Br)cc(/C=N/O)c1O)CC2 | 957 |
| COc1cc2c(cc1OC)CN(CC1CCN(Cc3cc(Cl)cc(/C=N/O)c3O)CC1)CC2 | 637 |
| COc1cc2c(cc1OC)CN(Cc1cc(Cl)cc(/C=N/O)c1O)CC2 | 1570 |
| COc1cc2c(cc1OC)CN(CC1CCN(Cc3cc(F)cc(/C=N/O)c3O)CC1)CC2 | 658 |
| COc1cc2c(cc1OC)CN(CC1CCN(Cc3cc(Br)cc(/C=N/O)c3O)CC1)CC2 | 568 |
| COc1cc2c(cc1OC)CN(Cc1cc(C)cc(/C=N/O)c1O)CC2 | 1060 |
| COc1cc(/C=N/O)c(O)c(CN2CCc3cc(OC)c(OC)cc3C2c2ccccc2)c1 (configuration not stated) | 911 |
| COc1cc(/C=N/O)c(O)c(CN2CCC(CN3CCc4cc(OC)c(OC)cc4C3)CC2)c1 | 848 |
| COc1cc2c(cc1OC)C(c1ccccc1)N(CC1CCN(Cc3cc(C)cc(/C=N/O)c3O)CC1)CC2 (configuration not stated) | 525 |
| COc1cc2c(cc1OC)CN(CC1CCN(Cc3cccc(/C=N/O)c3O)CC1)CC2 | 802 |
| COc1cc2c(cc1OC)C(c1ccccc1)N(Cc1cccc(/C=N/O)c1O)CC2 (configuration not stated) | 908 |
| COc1cc2c(cc1OC)CN(Cc1ccc(O)c(/C=N/O)c1)CC2 | 559 |
| COc1cc2c(cc1OC)C(c1ccccc1)N(Cc1cc(F)cc(/C=N/O)c1O)CC2 (configuration not stated) | 755 |
| COc1cc2c(cc1OC)CN(Cc1cccc(/C=N/O)c1O)CC2 | 1260 |
| COc1cc2c(cc1OC)C(c1ccccc1)N(CC1CCN(Cc3ccc(O)c(/C=N/O)c3)CC1)CC2 (configuration not stated) | 234 |
| COc1cc2c(cc1OC)C(c1ccccc1)N(CC1CCN(Cc3cc(Br)cc(/C=N/O)c3O)CC1)CC2 (configuration not stated) | 977 |
| COc1cc2c(cc1OC)C(c1ccccc1)N(Cc1ccc(O)c(/C=N/O)c1)CC2 (configuration not stated) | 626 |
| COc1cc2c(cc1OC)C(c1ccccc1)N(CC1CCN(Cc3cccc(/C=N/O)c3O)CC1)CC2 (configuration not stated) | 740 |
| COc1cc2c(cc1OC)C(c1ccccc1)N(CC1CCN(Cc3cc(Cl)cc(/C=N/O)c3O)CC1)CC2 (configuration not stated) | 941 |
